{
  "source": "patent US20250154129A1",
  "about": "“CRYSTALLINE PHARMACEUTICALLY ACCEPTABLE SALT AND POLYMORPHIC FORM OF THE GLUTAMINYL CYCLASE INHIBITOR VAROGLUTAMSTAT” (VIVORYON THERAPEUTICS N.V., priority 2023, published 2025)",
  "key": {"[1]": {"conditions": "for hygroscopicity (DVS, overall conclusion): 0 to 95% RH"}, "[2]": {"conditions": "USP method, crystallinity factor from XRPD areas A, B, C; hydrochloride"}, "[3]": {"assay": "Crystallinity by XRPD of salt forms from Example 3.2", "format": "physicochemical", "conditions": "1 g scale, isopropanol", "protocol": "• Angle: 2θ=2° to 2θ=40° • Sampling width 0.02 • Measurement time: 75 minutes.\nSolid was positioned on sample holder, prepared with grease and flattened with a disc of glass."}, "[4]": {"assay": "Hygroscopicity (DVS) of salt forms from Example 3.2", "format": "physicochemical", "conditions": "for hygroscopicity: 1 g scale, isopropanol, DVS", "excerpt": "VTI-SA by TA Instruments with Isotherm Software for data acquisition and handling, glass sample holder and de-ionised water for vapour production."}, "[5]": {"assay": "Solubility in water of salt forms from 1 g scale salt screening in isopropanol", "excerpt": "For such salts with a clear stoichiometry, their preparation was then repeated on 1 g scale (free base) in isopropanol with the acid slowly being added followed by seeding (seeds as obtained from the screening experiment). The solids were then further characterized with regard to: • Handling of crystals, • Crystal habit (microscopy, macroscopic): presence and shape of crystals, • Crystallinity (quality of crystals, XRPD), • Thermal analysis (DSC and TGA), • Hygroscopicity (DVS), and • Solubility in water."}},
  "note": "Like-named read-outs stand apart in the source and are kept apart here.",
  "data": [
    {"smiles": "CCCOc1ccc([C@H]2CNC(=O)N2c2ccc3[nH]cnc3c2)cc1.Cl", "note": "[Ex. 4.2, (S)-1-(1H-benzo[d]imidazol-5-yl)-5-(4-propoxyphenyl) imidazolidin-2-one hydrochloride]", "values": [
      {"measurement": "hygroscopicity (DVS, overall conclusion)", "setting": "[1]; 25° C., listed as HCl salt prepared according to Example 4.2, hydrochloride", "value": "hygroscopic"},
      {"measurement": "final mass gain (water sorption) compared to the initial mass", "setting": "[1]; 95% RH, 25° C.", "value": "5-6%"},
      {"measurement": "hygroscopicity up to 55% RH (DVS)", "setting": "[1]; up to 55% RH, 25° C.", "value": "no hygroscopicity"},
      {"measurement": "Degree of crystallinity", "setting": "[2]", "value": 64, "unit": "%"}
    ]},
    {"smiles": "CCCOc1ccc([C@H]2CNC(=O)N2c2ccc3[nH]cnc3c2)cc1.Cl", "note": "[Ex. 4.3, (S)-1-(1H-benzo[d]imidazol-5-yl)-5-(4-propoxyphenyl) imidazolidin-2-one hydrochloride]", "values": [
      {"measurement": "hygroscopicity (DVS, overall conclusion)", "setting": "[1]; 25° C., listed as HCl salt prepared according to Example 4.3, hydrochloride", "value": "not to be hygroscopic"},
      {"measurement": "mass gain in DVS over the complete range of RH", "setting": "[1]; complete range of RH", "value": "no mass gain"},
      {"measurement": "Degree of crystallinity", "setting": "[2]", "value": 68, "unit": "%"}
    ]},
    {"smiles": "CCCOc1ccc([C@H]2CNC(=O)N2c2ccc3[nH]cnc3c2)cc1", "note": "[TosOH]", "values": [
      {"measurement": "crystallinity (by XRPD)", "setting": "[3]", "value": "good"},
      {"measurement": "hygroscopicity", "setting": "[4]", "value": "low"}
    ]},
    {"smiles": "CCCOc1ccc([C@H]2CNC(=O)N2c2ccc3[nH]cnc3c2)cc1.Cl", "note": "[Varoglutamstat Hydrochloride, (S)-1-(1H-benzo[d]imidazol-5-yl)-5-(4-propoxyphenyl) imidazolidin-2-one hydrochloride]", "values": [
      {"measurement": "crystallinity (by XRPD)", "setting": "[3]", "value": "good"},
      {"measurement": "hygroscopicity", "setting": "[4]", "value": "high"},
      {"measurement": "hygroscopicity (DVS, words)", "setting": "[4]; material of Example 3.2", "value": "very hygroscopic"},
      {"measurement": "water uptake (DVS)", "setting": "[4]; material of Example 3.2, 25° C., up to 98% RH, uptake not finished at maximum humidity", "value": "more than 16 % w/w"},
      {"measurement": "solubility", "setting": "[5]; 20 °C, water, thermodynamic from solid", "value": 130, "unit": "mM"},
      {"measurement": "solubility in water higher than the tosylate salt by", "setting": "[5]; hydrochloride versus tosylate", "value": "two orders of magnitude"}
    ]},
    {"smiles": "CCCOc1ccc([C@H]2CNC(=O)N2c2ccc3[nH]cnc3c2)cc1", "note": "[Varoglutamstat free base, (S)-1-(1H-benzo[d]imidazol-5-yl)-5-(4-propoxyphenyl)imidazolidin-2-one]", "values": [
      {"measurement": "crystallinity (by XRPD)", "setting": "[3]", "value": "none"},
      {"measurement": "hygroscopicity", "setting": "[4]", "value": "high"}
    ]}
  ]
}
